The list shows a part of the results, in another mix than the full data. Active and inactive are the calls of the source. Calls come from the whole dose curve; as a rule, active = well fitted inhibition curve with a large enough effect in the polarisation, with a control signal flat (not every such curve was filed as active); inconclusive = small, poorly fitted or top-dose-only effect, or effect the other way, or a change in a side signal; inactive = no such curve, though single readings can be large or run the other way; the % refers to the polarisation.

By UniProt entry, the sequences of proteins in these tests, tags left out.
UniProt Q03164, whole entry: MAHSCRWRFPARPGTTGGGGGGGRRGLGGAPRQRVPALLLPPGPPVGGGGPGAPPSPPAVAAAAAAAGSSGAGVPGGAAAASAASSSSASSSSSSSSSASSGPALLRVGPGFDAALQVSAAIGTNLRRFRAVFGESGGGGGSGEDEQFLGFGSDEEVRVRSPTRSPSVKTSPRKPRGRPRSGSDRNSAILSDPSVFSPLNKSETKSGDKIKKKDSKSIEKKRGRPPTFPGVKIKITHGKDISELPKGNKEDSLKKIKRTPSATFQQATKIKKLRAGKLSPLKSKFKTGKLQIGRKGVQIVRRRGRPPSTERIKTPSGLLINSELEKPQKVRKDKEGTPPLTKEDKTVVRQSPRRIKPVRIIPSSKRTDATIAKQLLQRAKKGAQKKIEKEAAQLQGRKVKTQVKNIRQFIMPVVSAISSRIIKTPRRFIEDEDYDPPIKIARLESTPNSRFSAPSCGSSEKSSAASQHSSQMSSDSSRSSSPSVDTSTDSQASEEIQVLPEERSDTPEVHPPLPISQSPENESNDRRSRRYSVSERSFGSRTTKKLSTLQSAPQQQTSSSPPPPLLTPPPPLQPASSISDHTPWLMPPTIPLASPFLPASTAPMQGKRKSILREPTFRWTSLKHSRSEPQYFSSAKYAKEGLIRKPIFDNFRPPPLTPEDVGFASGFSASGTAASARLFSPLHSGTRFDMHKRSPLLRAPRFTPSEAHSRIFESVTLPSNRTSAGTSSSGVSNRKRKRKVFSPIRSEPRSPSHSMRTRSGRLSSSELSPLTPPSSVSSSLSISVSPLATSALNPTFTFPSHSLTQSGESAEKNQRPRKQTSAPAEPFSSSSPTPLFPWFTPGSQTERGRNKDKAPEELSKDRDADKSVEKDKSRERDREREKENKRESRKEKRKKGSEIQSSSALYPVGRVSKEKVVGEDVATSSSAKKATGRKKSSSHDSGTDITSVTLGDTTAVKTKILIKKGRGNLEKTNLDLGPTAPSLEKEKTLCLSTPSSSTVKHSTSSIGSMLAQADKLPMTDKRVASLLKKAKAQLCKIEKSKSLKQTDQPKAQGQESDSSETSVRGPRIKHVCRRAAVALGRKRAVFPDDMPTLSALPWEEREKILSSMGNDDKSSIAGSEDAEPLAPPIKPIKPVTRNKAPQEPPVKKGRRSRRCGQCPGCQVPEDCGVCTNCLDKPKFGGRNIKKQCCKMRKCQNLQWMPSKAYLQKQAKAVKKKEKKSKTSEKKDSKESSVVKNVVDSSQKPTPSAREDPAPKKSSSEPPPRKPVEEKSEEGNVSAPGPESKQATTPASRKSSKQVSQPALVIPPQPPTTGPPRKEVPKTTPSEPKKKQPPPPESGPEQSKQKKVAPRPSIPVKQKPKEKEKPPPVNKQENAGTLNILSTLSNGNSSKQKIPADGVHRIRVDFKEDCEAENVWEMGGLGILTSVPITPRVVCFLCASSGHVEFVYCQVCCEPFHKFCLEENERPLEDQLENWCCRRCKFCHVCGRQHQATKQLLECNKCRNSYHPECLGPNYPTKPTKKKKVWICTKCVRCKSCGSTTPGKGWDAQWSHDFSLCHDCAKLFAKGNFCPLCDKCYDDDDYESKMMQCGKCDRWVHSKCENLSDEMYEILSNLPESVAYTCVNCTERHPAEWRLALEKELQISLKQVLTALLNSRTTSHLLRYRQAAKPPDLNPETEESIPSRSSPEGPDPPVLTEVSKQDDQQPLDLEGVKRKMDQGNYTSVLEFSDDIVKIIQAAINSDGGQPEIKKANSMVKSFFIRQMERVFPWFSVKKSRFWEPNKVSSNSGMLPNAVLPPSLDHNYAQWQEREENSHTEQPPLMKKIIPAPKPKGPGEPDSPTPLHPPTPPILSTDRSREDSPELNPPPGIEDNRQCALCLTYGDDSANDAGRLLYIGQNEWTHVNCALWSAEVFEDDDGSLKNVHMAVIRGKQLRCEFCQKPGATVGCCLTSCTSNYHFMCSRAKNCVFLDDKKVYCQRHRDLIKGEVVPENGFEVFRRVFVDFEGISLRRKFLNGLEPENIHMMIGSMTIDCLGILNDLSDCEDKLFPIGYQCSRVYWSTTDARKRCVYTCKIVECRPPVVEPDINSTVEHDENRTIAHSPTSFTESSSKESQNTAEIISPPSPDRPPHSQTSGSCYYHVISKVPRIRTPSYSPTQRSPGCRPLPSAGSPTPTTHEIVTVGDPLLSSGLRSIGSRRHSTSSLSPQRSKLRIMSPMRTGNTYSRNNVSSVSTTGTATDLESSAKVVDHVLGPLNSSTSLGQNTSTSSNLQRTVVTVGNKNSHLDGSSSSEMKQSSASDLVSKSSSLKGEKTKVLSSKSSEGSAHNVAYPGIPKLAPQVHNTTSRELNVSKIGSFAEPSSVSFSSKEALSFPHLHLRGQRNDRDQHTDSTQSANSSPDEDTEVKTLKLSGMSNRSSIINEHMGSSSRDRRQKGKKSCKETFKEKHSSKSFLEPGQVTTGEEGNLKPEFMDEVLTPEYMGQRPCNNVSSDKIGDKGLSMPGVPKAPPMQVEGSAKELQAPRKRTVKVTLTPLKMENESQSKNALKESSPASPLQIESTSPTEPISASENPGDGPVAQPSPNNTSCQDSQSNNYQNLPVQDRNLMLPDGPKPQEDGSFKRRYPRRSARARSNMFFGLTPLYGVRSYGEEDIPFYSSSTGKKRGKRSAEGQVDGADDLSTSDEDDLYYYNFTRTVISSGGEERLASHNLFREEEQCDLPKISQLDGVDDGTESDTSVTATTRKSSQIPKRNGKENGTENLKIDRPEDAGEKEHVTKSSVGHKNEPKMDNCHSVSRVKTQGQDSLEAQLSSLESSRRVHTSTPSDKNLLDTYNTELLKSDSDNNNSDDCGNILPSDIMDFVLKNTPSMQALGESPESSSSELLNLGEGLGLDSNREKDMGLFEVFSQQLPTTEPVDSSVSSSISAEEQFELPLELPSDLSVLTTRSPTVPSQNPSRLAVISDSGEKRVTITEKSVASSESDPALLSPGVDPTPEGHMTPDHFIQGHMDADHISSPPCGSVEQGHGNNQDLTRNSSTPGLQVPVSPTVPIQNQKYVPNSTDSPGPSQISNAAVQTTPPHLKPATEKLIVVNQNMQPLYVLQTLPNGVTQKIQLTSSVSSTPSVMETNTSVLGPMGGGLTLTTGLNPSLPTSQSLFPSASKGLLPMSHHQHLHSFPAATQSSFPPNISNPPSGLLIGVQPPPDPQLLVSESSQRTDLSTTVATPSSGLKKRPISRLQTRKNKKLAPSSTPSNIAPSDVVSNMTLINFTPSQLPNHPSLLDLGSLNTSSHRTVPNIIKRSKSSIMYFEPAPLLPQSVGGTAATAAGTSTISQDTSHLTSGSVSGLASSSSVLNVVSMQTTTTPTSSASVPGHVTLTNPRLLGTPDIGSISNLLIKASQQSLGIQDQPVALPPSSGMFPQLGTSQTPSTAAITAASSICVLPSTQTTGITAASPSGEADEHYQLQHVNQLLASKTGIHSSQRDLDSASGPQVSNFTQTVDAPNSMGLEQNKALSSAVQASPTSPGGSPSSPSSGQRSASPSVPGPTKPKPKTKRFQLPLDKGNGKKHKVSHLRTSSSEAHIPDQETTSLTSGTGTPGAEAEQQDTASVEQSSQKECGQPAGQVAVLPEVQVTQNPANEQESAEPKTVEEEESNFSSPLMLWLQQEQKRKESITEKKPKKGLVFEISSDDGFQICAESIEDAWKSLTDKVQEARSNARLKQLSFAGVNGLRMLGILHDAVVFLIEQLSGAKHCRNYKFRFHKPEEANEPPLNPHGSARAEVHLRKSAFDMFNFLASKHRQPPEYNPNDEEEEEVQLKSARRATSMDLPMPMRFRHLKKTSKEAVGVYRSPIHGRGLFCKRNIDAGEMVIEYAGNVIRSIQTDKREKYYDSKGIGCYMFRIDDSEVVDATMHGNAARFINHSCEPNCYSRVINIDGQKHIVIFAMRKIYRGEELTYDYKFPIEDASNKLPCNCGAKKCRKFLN

The target in the assay is Histone-lysine N-methyltransferase 2A (Homo sapiens) (UniProt Q03164). The assay is described as follows: qHTS Fluorescence Polarization Assay for Inhibitors of MLL CXXC domain - DNA interaction. The conditions noted are these: MLL-CXXC / FITC-HOXA9 DNA fluorescence polarization; at 115 µM (top of the series).
Regarding `CCC(=O)N(c1ccccc1)C1CCN(CCc2ccccc2)CC1`, the activity change, negative = inhibition was inactive: -1.28%. Under `CN(CCCl)CCCl` stands inactive: 4.95%.

The values above are taken from PubChem BioAssay AID2662 (National Center for Advancing Translational Sciences (NCATS), 2010).
